As usually defined, the Km is the substrate concentration at which the rate is half of its maximum. In general, kcat refers to the number of substrate molecules converted per active site and unit of time at saturation. As usually defined, the kcat/Km is the turnover number divided by the Michaelis constant.

Experimental findings from article PMC6295333 (Biochemistry, 2018) are described below.

This series relates to CN1CCC[C@H]1c1cccnc1. Kind of series: purified protein. The following applies: FAD active site; hydrogen bond to T381 removed; pH 7.4; 22.0 °C.

For the substance “Nicotine oxidoreductase (NicA2) (Pseudomonas putida S16; T381V)”, the Km was determined as 0.317 µM, the kcat stood at 0.011 s⁻¹ and the kcat/Km was 34700 M⁻¹ s⁻¹.
